Results from PubChem BioAssay (NCI).
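Values below derive from 48-hour exposures of cells grown in 96-well plates, with endpoints linearly interpolated between the two concentrations bracketing the appropriate inhibition level. GI50 marks 50% less growth. Definition used: TGI = concentration required for complete inhibition of growth.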

Experiments:
Experiment in all cases: DTP human tumour cell line panel, 48 h
OVCAR-5 ovarian = system: OVCAR-5 ovarian
SK-OV-3 ovarian = system: SK-OV-3 ovarian
HOP-92 NSCLC = system: HOP-92 NSCLC
T-47D breast = system: T-47D breast
NCI-H522 lung = system: NCI-H522 lung
RXF 393 renal = system: RXF 393 renal
SR leukemia = system: SR leukemia
SNB-75 CNS = system: SNB-75 CNS
U251 CNS = system: U251 CNS
HCT-116 colon = system: HCT-116 colon
A498 renal = system: A498 renal
HOP-62 NSCLC = system: HOP-62 NSCLC
OVCAR-3 ovarian = system: OVCAR-3 ovarian
HCT-15 colon = system: HCT-15 colon
SNB-19 CNS = system: SNB-19 CNS
CAKI-1 renal = system: CAKI-1 renal
HS 578T breast = system: HS 578T breast
UACC-62 melanoma = system: UACC-62 melanoma
OVCAR-8 ovarian = system: OVCAR-8 ovarian
EKVX NSCLC = system: EKVX NSCLC
CCRF-CEM leukemia = system: CCRF-CEM leukemia
SK-MEL-5 melanoma = system: SK-MEL-5 melanoma
SF-295 CNS = system: SF-295 CNS
HCC-2998 colon = system: HCC-2998 colon
MALME-3M melanoma = system: MALME-3M melanoma
SK-MEL-2 melanoma = system: SK-MEL-2 melanoma
M14 melanoma = system: M14 melanoma
BT-549 breast = system: BT-549 breast
SF-268 CNS = system: SF-268 CNS
PC-3 prostate = system: PC-3 prostate
A549 NSCLC = system: A549 NSCLC
NCI-H226 lung = system: NCI-H226 lung
DU-145 prostate = system: DU-145 prostate
UACC-257 melanoma = system: UACC-257 melanoma
NCI-H460 lung = system: NCI-H460 lung
KM12 colon = system: KM12 colon
MDA-MB-435 = system: MDA-MB-435
OVCAR-4 ovarian = system: OVCAR-4 ovarian
SN12C renal = system: SN12C renal
HL-60(TB) leukemia = system: HL-60(TB) leukemia
NCI-H322M lung = system: NCI-H322M lung
786-0 renal = system: 786-0 renal
MOLT-4 leukemia = system: MOLT-4 leukemia
NCI-H23 lung = system: NCI-H23 lung
LOX IMVI melanoma = system: LOX IMVI melanoma
UO-31 renal = system: UO-31 renal
K-562 leukemia = system: K-562 leukemia
MDA-MB-231 breast = system: MDA-MB-231 breast
COLO 205 colon = system: COLO 205 colon
SW-620 colon = system: SW-620 colon
TK-10 renal = system: TK-10 renal
HT29 colon = system: HT29 colon
MCF7 breast = system: MCF7 breast
SF-539 CNS = system: SF-539 CNS
NCI/ADR-RES ovarian = system: NCI/ADR-RES ovarian
ACHN renal = system: ACHN renal
RPMI-8226 leukemia = system: RPMI-8226 leukemia

`Cc1c([N+](=O)[O-])cc([N+](=O)[O-])c(-c2c([N+](=O)[O-])cc([N+](=O)[O-])c(C)c2[N+](=O)[O-])c1[N+](=O)[O-]` was tested, and the GI50 (OVCAR-5 ovarian) was 2.32 µM, the TGI (OVCAR-5 ovarian) was 6.51 µM and the GI50 (SK-OV-3 ovarian) was 4.35 µM. It also gave a TGI (SK-OV-3 ovarian) of 76.6 µM, a GI50 (HOP-92 NSCLC) of 3.4 µM and a TGI (HOP-92 NSCLC) of 22.1 µM. For the same compound, the GI50 (T-47D breast) was 1.91 µM, the TGI (T-47D breast) was 5.31 µM and the GI50 (NCI-H522 lung) was 1.75 µM. For the same compound, the TGI (NCI-H522 lung) was 4.93 µM, the GI50 (RXF 393 renal) was 0.139 µM and the TGI (RXF 393 renal) was 0.909 µM. The GI50 (SR leukemia) was 0.367 µM, the TGI (SR leukemia) was greater than 100 µM and the GI50 (SNB-75 CNS) was 4.29 µM. The TGI (SNB-75 CNS) was 17.1 µM, the GI50 (U251 CNS) was 2.67 µM and the TGI (U251 CNS) was 7.24 µM. The GI50 (HCT-116 colon) was 0.856 µM, the TGI (HCT-116 colon) was greater than 100 µM and the GI50 (A498 renal) was 17.2 µM. The TGI (A498 renal) was 35.5 µM, the GI50 (HOP-62 NSCLC) was 5.36 µM and the TGI (HOP-62 NSCLC) was greater than 100 µM. The GI50 (OVCAR-3 ovarian) was 3.2 µM, the TGI (OVCAR-3 ovarian) was greater than 100 µM and the GI50 (HCT-15 colon) was 1.84 µM. For the same compound, the TGI (HCT-15 colon) was 4.48 µM, the GI50 (SNB-19 CNS) was 3.19 µM and the TGI (SNB-19 CNS) was 7.7 µM. It also gave a GI50 (CAKI-1 renal) of 3.61 µM, a TGI (CAKI-1 renal) of 13.4 µM and a GI50 (HS 578T breast) of 6.42 µM. The TGI (HS 578T breast) was greater than 100 µM, the GI50 (UACC-62 melanoma) was 4 µM and the TGI (UACC-62 melanoma) was greater than 100 µM. The GI50 (OVCAR-8 ovarian) was 2.84 µM, the TGI (OVCAR-8 ovarian) was 7.62 µM and the GI50 (EKVX NSCLC) was 47.1 µM. The TGI (EKVX NSCLC) was greater than 100 µM, the GI50 (CCRF-CEM leukemia) was 1.73 µM and the TGI (CCRF-CEM leukemia) was greater than 100 µM. It also gave a GI50 (SK-MEL-5 melanoma) of 3.46 µM, a TGI (SK-MEL-5 melanoma) of 12.9 µM and a GI50 (SF-295 CNS) of 4.33 µM. It also gave a TGI (SF-295 CNS) of 69.8 µM, a GI50 (HCC-2998 colon) of 1.75 µM and a TGI (HCC-2998 colon) of 3.89 µM. The GI50 (MALME-3M melanoma) was 1.72 µM, the TGI (MALME-3M melanoma) was 4.66 µM and the GI50 (SK-MEL-2 melanoma) was 4.36 µM. It also gave a TGI (SK-MEL-2 melanoma) of 25.6 µM, a GI50 (M14 melanoma) of 4.23 µM and a TGI (M14 melanoma) greater than 100 µM. It also gave a GI50 (BT-549 breast) of 2.44 µM, a TGI (BT-549 breast) of 5.63 µM and a GI50 (SF-268 CNS) of 1.88 µM. It also gave a TGI (SF-268 CNS) of 4.41 µM, a GI50 (PC-3 prostate) of 3.17 µM and a TGI (PC-3 prostate) of 55.8 µM. It also gave a GI50 (A549 NSCLC) of 8.49 µM, a TGI (A549 NSCLC) greater than 100 µM and a GI50 (NCI-H226 lung) of 2.59 µM. The TGI (NCI-H226 lung) was 5.8 µM, the GI50 (DU-145 prostate) was 2.74 µM and the TGI (DU-145 prostate) was greater than 100 µM. It also gave a GI50 (UACC-257 melanoma) of 2.57 µM, a TGI (UACC-257 melanoma) of 6.32 µM and a GI50 (NCI-H460 lung) of 1.89 µM. For the same compound, the TGI (NCI-H460 lung) was 5.2 µM, the GI50 (KM12 colon) was 2.86 µM and the TGI (KM12 colon) was 9.12 µM. It also gave a GI50 (MDA-MB-435) of 2.28 µM, a TGI (MDA-MB-435) of 5.07 µM and a GI50 (OVCAR-4 ovarian) of 2.57 µM. It also gave a TGI (OVCAR-4 ovarian) of 6.26 µM, a GI50 (SN12C renal) of 3.63 µM and a TGI (SN12C renal) greater than 100 µM. For the same compound, the GI50 (HL-60(TB) leukemia) was 0.494 µM, the TGI (HL-60(TB) leukemia) was 18 µM and the GI50 (NCI-H322M lung) was 3.76 µM. The TGI (NCI-H322M lung) was 9.44 µM, the GI50 (786-0 renal) was 2.71 µM and the TGI (786-0 renal) was 9.14 µM. It also gave a GI50 (MOLT-4 leukemia) of 0.385 µM, a TGI (MOLT-4 leukemia) greater than 100 µM and a GI50 (NCI-H23 lung) of 3.89 µM. The TGI (NCI-H23 lung) was greater than 100 µM, the GI50 (LOX IMVI melanoma) was 0.323 µM and the TGI (LOX IMVI melanoma) was 11.8 µM. It also gave a GI50 (UO-31 renal) of 2 µM, a TGI (UO-31 renal) of 4.42 µM and a GI50 (K-562 leukemia) of 0.786 µM. For the same compound, the TGI (K-562 leukemia) was greater than 100 µM, the GI50 (MDA-MB-231 breast) was 2.5 µM and the TGI (MDA-MB-231 breast) was 8.52 µM. It also gave a GI50 (COLO 205 colon) of 2.9 µM, a TGI (COLO 205 colon) of 6.64 µM and a GI50 (SW-620 colon) of 2.05 µM. The TGI (SW-620 colon) was greater than 100 µM, the GI50 (TK-10 renal) was 4.76 µM and the TGI (TK-10 renal) was greater than 100 µM. For the same compound, the GI50 (HT29 colon) was 1.08 µM, the TGI (HT29 colon) was 4.52 µM and the GI50 (MCF7 breast) was 0.183 µM. The TGI (MCF7 breast) was 0.767 µM, the GI50 (SF-539 CNS) was 5.77 µM and the TGI (SF-539 CNS) was greater than 100 µM. It also gave a GI50 (NCI/ADR-RES ovarian) of 4.31 µM, a TGI (NCI/ADR-RES ovarian) greater than 100 µM and a GI50 (ACHN renal) of 2.81 µM. For the same compound, the TGI (ACHN renal) was 6.62 µM, the GI50 (RPMI-8226 leukemia) was 0.656 µM and the TGI (RPMI-8226 leukemia) was 54.9 µM.
